Experimental data taken from PubChem BioAssay AID903 (National Center for Advancing Translational Sciences (NCATS), 2007).
The list shows a part of the results, in another mix than the full data. Records with an inconclusive call do not appear. Active and inactive are the calls of the source. Calls come from the whole dose curve; as a rule, active = well fitted cell-killing curve with a large enough effect; inconclusive = small, poorly fitted or top-dose-only effect; inactive = no such curve, though single readings can be large or run the other way.

Test: qHTS Screen for Compounds that Selectively Target Cancer Cells with p53 Mutations: Cytotoxicity of p53 Null Cells at the Permissive Temperature;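 note: 0% = DMSO only and -100% = full killing by 100 µM tamoxifen; nearly all actives have a fitted effect of over 55% in size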
Details: H1299-neo p53 null cells, ATP luminescence, 24 h, 32C; at 46.1 µM (top of the series)
Excerpt: NIH Chemical Genomics Center [NCGC] NIH Molecular Libraries Screening Centers Network [MLSCN] MLSCN Grant: 1 X01 MH079844-01 Assay Submitter (PI): Dr. SUN, YI, University of Michigan NCGC Assay Overview: Synthetic Lethal Screen for Compounds to Kill Cancer Cells with p53 Mutation. Tumor suppressor gene p53 serves as a major cellular barrier against tumorigenesis. […] The goal of this screening is to identify small molecule probes that selectively kill cancer cells with mutations in p53. This screening was carried out using two lines of H1299 lung cancer cells. The H1299-p53 A138V line express a temperature sensitive p53 mutant (p53ts) in which the mutant p53 protein (A138V) is in the mutant confirmation when grown at 39C (the nonpermissive temperature) and in the wild type conformation when grown at 32C (the permissive temperature). A H1299-neo line (p53 null) grown at both 39C and 32C were used as counter-screens to filter out false positive associated with temperature shifting. The small molecular compounds that selectively target mutant p53-containing cancer cells were selected as candidate probes for further study. A cytotoxicity assay based on the measurement of ATP contents in cells was used in this screen. Concentration-responses of all the compounds in the library collection were determined in qHTS using the cell lines and temperature conditions as above.
NCGC Assay Protocol Summary: Both the H1299-p53A138V and H1299-neo cell lines were provided by Dr.Yi Sun, a PI at the University Michigan. The cells were maintained and cultured at 37C. The resuspended frozen cells were used to plate the cells in the 1536-well assay plates at a density of 600 cells per well in 5 ul medium. The assay plates with the cells were incubated at 37C for 16 to 30 hours before the experiments. The library compounds in DMSO solution were added to the cells in assay plates and incubated 24 hours at 39C (for mutant p53 conformation) or 32C (for normal p53 conformation as control). An ATP_lite assay kit (PerkinElmer) was used to determine the cell viability. Tomaxifen (100uM) was used as the positive control for cell killing. Data were normalized to the controls for basal activity (DMSO only) and 100% killing (100uM tamoxifen). AC50 values were determined from concentration-response data modeled with the standard Hill equation. P53 assay protocol: 1. Reagent; 5 uL H1299-p53A138V or H1299-neo cell cells/well 2. Time; overnight; 37C incubation 3. Compounds; 23 nL; 5.9 nM to 46 uM 4. Controls; 23 nL; Tamoxifen 100 uM 5. Time; 24 hr; 32C incubation 6. Reagent; 3 uL; ATP_Lite reagent 7. Time; 20 min; Room Temperature 8. Detection; Luminescence; Viewlux plate reader Keywords: p53, synthetic lethal, cancer, cell viability, cytotoxicity, H1299 cell line, luminescence, MLSMR, MLSCN, NIH Roadmap, qHTS, NCGC

| SMILES | activity change, negative = cytotoxicity |
| --- | --- |
| CN(C)C1(CNC(=O)c2ccc(C(C)(C)C)cc2)CCCCC1 | inactive: -8.75% |
| CC(C)(C)c1ccc(C(=O)NCC2(N3CCOCC3)CCCCC2)cc1 | inactive: -8.99% |
| Cc1ccccc1C(=O)NCC1(N(C)C)CCCCC1 | inactive: -2.79% |
| COc1cc(C(=O)NCC2(N3CCOCC3)CCCCC2)cc(OC)c1OC | inactive: -3.06% |
| O=C(NCC1(N2CCOCC2)CCCCC1)c1ccc([N+](=O)[O-])cc1 | inactive: -10.9% |
| O=C(NCC1(N2CCOCC2)CCCCC1)c1ccccc1[N+](=O)[O-] | inactive: -4.68% |
| O=C(NCC1(N2CCOCC2)CCCCC1)c1ccccc1 | inactive: -3.5% |
| CCOc1ccc(C(=O)NCC2(N3CCOCC3)CCCCC2)cc1 | inactive: -8.99% |
| CCCOc1cccc(C(=O)NCC2(N3CCOCC3)CCCCC2)c1 | inactive: 3.25% |
| CCCCOc1ccccc1C(=O)NCC1(N2CCOCC2)CCCCC1 | inactive: -13% |
| O=C(NCC1(N2CCOCC2)CCCCC1)c1ccccc1Br | inactive: -2.15% |
| COc1ccccc1C(=O)NCC1(N2CCOCC2)CCCCC1 | inactive: -6.56% |
| O=C(NCC1(N2CCOCC2)CCCCC1)c1ccc(Cl)cc1 | inactive: -1.77% |
